According to patent US5763625A, “Synthesis and use of β-lapachone analogs” (priority 1995, dated 1998):

Tested on: human radioresistant melanoma (U1-Mel) cells
Assay: Radiosensitization of X-irradiated confluence-arrested U1-Mel cells (survival)
Conditions: 10 μM
[1] = 4 Hr posttreatment after X-rays

CCC1(N)C(=O)OCc2c1cc1n(c2=O)Cc2cc3ccccc3nc2-1 (racemic) [20-Amino-20(RS)-Deoxy(RS)]
Do [1]: 197 ± 8 cGy | Dq [1]: 210 ± 5 cGy | DER Values 1% (4 Hr posttreatment, 1% survival): 1.8 ± 0.3 | DER Values 10% (4 Hr posttreatment, 10% survival): 1.4 ± 0.6
